Test results taken from the NIST ThermoML archive (doi:10.1016/j.jct.2012.01.019).
± gives the expanded uncertainty stated by the source.

Assay: activity coefficient (dimensionless); of the first substance listed, at infinite dilution; xn = mol fraction of the nth substance listed
Settings: 101 kPa, Liquid, Chromatography, x1 = 0

**Q.** Which results are given for `CCCCOCCCC` [dibutyl ether] + COCC[N+]1(C)CCCCC1.O=S(=O)([N-]S(=O)(=O)C(F)(F)F)C(F)(F)F?
**A.** activity coefficient (318.15 K): 13.9 ± 1; activity coefficient (328.15 K): 13.2 ± 0.9; activity coefficient (338.15 K): 12.5 ± 0.9; activity coefficient (348.15 K): 11.8 ± 0.8; activity coefficient (358.15 K): 11.3 ± 0.8; activity coefficient (368.15 K): 10.9 ± 0.7
